Values quoted from earlier work as cited in patent US20170165293A1, “METHOD AND APPARATUS FOR SCAVENGING PLASMA FREE HEMOGLOBIN” (GENO LLC, priority 2015, published 2017).
This is a selection: effects in other tests are not listed, and their absence says nothing.

System: free water-induced intravascular hemolysis
Details: free water-induced hemolysis compared with D5W and D5W plus NO; cited from earlier work

sodium nitroprusside
percent change in CI in response to increasing doses of sodium nitroprusside: blunted | percent change in SVRI in response to increasing doses of sodium nitroprusside: blunted
